Data on one compound can be found in patent US9006170B2, “Compositions for elastogenesis and connective tissue treatment” (Human Matrix Sciences, LLC, priority 2004, dated 2015).

For the assay, the system named is normal human skin fibroblasts. The assay is described as follows: Quantitative assay of insoluble elastin ([3H]-valine metabolic labeling) in fibroblast cultures. It is filed as cell-based.

`CNC(=S)NC` [DMTU, dimethylthiourea]: the “increase in elastin production as compared to cultures treated with 200 μM iron alone” value (200 μM iron in the presence of DMTU) was about 2 fold. The “increase in elastin deposition over untreated control” value (200 μM iron treatment with DMTU) is on record as about 2 fold. Further, the “reversal of the inhibitory effect of 200 μM iron treatment on elastin deposition” value (antioxidant applied with 200 μM of iron) is given as “reversed the inhibitory effect”.
